Assay [1] has as its target baker's yeast D-glyceraldehyde-3-phosphate dehydrogenase (baker's yeast) (UniProt P00359).
Assay [2] deals with rabbit muscle D-glyceraldehyde-3-phosphate dehydrogenase (rabbit) (UniProt P46406).
The target in assay [3] is baker's yeast D-glyceraldehyde-3-phosphate dehydrogenase (baker's yeast) (UniProt P00359). The source holds these as a separate data set.
The target of assay [4] is rabbit muscle D-glyceraldehyde-3-phosphate dehydrogenase (rabbit) (UniProt P46406). The source holds these as a separate data set.

With “rabbit muscle L-lactate dehydrogenase (from UniProt P13491 2-332) (enzyme)”, in assay [1], the ratio between measured rmLDH activity and the calculated free-diffusion activity; 40 μM NADH, byGAPDH 240 to 480 μM of NADH binding sites; ratio rises from 3.5 to 5.8 fold was 5.8 fold; the ratio between measured rmLDH activity and the calculated free-diffusion activity; byGAPDH fixed at 480 μM NADH binding sites, NADH decreased from 40 to 10 μM; ratio rises from 4.85 to 6.2 fold was 6.2 fold. Moreover, in assay [2], the ratio between measured rmLDH activity and the calculated free-diffusion activity; 40 μM NADH, rmGAPDH 100 to 240 μM of NADH binding sites; ratio rises from 1.2 to 1.85 fold is 1.85 fold; the ratio between measured rmLDH activity and the calculated free-diffusion activity; rmGAPDH fixed at 200 μM NADH binding sites, NADH decreased from 40 to 10 μM; ratio rises from 1.65 to 2.25 fold is 2.25 fold. For the same substance, in assay [3], the apparent KM of rmLDH with byGAPDH-NADH complex as substrate (630 μM pyruvate) amounted to 78 µM and the apparent Vmax of rmLDH with byGAPDH-NADH complex as substrate (630 μM pyruvate) (units per milligram) was 241. In assay [4], the apparent KM of rmLDH with rmGAPDH-NADH complex as substrate (630 μM pyruvate) stood at 35 µM and the apparent Vmax of rmLDH with rmGAPDH-NADH complex as substrate (630 μM pyruvate) (units per milligram) was 8.2.

(Values after publication PMC7320145, “Substrate Channeling via a Transient Protein-Protein Complex: The case of D-Glyceraldehyde-3-Phosphate Dehydrogenase and L-Lactate Dehydrogenase” (Scientific Reports, 2020).)
